Measurements taken from PubChem BioAssay (NCI).
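Cells were grown in 96-well plates and exposed to each compound for 48 hours at five concentrations; endpoints were interpolated linearly between bracketing concentrations, or set to the highest concentration if not reached. TGI denotes the concentration required for complete inhibition of growth.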

Tests used:
Test in all cases: NCI tumour cell line growth inhibition, 48 h
[1] = system: 786-0 renal
[2] = system: A498 renal
[3] = system: A549 NSCLC
[4] = system: ACHN renal
[5] = system: CAKI-1 renal
[6] = system: CCRF-CEM leukemia
[7] = system: COLO 205 colon
[8] = system: DU-145 prostate
[9] = system: EKVX NSCLC
[10] = system: HCC-2998 colon
[11] = system: HCT-116 colon
[12] = system: HCT-15 colon
[13] = system: HL-60(TB) leukemia
[14] = system: HOP-62 NSCLC
[15] = system: HOP-92 NSCLC
[16] = system: HS 578T breast
[17] = system: HT29 colon
[18] = system: IGROV1 ovarian
[19] = system: K-562 leukemia
[20] = system: KM12 colon
[21] = system: LOX IMVI melanoma
[22] = system: M14 melanoma
[23] = system: MALME-3M melanoma
[24] = system: MCF7 breast
[25] = system: MDA-MB-231 breast
[26] = system: MDA-MB-435
[27] = system: MDA-N
[28] = system: MOLT-4 leukemia
[29] = system: NCI-H226 lung
[30] = system: NCI-H23 lung
[31] = system: NCI-H460 lung
[32] = system: NCI-H522 lung
[33] = system: NCI/ADR-RES ovarian
[34] = system: OVCAR-3 ovarian
[35] = system: OVCAR-4 ovarian
[36] = system: OVCAR-5 ovarian
[37] = system: OVCAR-8 ovarian
[38] = system: PC-3 prostate
[39] = system: RPMI-8226 leukemia
[40] = system: RXF 393 renal
[41] = system: SF-268 CNS
[42] = system: SF-295 CNS
[43] = system: SF-539 CNS
[44] = system: SK-MEL-2 melanoma
[45] = system: SK-MEL-28 melanoma
[46] = system: SK-MEL-5 melanoma
[47] = system: SK-OV-3 ovarian
[48] = system: SN12C renal
[49] = system: SNB-19 CNS
[50] = system: SNB-75 CNS
[51] = system: SR leukemia
[52] = system: SW-620 colon
[53] = system: T-47D breast
[54] = system: TK-10 renal
[55] = system: U251 CNS
[56] = system: UACC-257 melanoma
[57] = system: UACC-62 melanoma
[58] = system: UO-31 renal

Measured: TGI

COc1ccc2c3c1O[C@H]1C4(OC)CCC5(CC4C(C)(C)O)[C@@H](C2)N(C)CC[C@]315 (stereo partly drawn)
> 100 µM: [1] | [2] | [3] | [4] | [5] | [6] | [7] | [8] | [9] | [10] | [11] | [12] | [13] | [14] | [15] | [16] | [17] | [18] | [19] | [20] | [21] | [22] | [23] | [24] | [25] | [26] | [27] | [28] | [29] | [30] | [31] | [32] | [33] | [34] | [35] | [36] | [37] | [38] | [39] | [40] | [41] | [42] | [43] | [44] | [45] | [46] | [47] | [48] | [49] | [50] | [51] | [52] | [53] | [54] | [55] | [56] | [57] | [58]
